We go through one compound from US20230158025A1 (UNIVERSITY OF UTAH RESEARCH FOUNDATION, priority 2020, published 2023).

Protein sequences, listed by entry. Tags and fused reporters are not part of them. Lines headed by an entry give the natural chain unless they say otherwise; changes in a name come on top.
UniProt P51570: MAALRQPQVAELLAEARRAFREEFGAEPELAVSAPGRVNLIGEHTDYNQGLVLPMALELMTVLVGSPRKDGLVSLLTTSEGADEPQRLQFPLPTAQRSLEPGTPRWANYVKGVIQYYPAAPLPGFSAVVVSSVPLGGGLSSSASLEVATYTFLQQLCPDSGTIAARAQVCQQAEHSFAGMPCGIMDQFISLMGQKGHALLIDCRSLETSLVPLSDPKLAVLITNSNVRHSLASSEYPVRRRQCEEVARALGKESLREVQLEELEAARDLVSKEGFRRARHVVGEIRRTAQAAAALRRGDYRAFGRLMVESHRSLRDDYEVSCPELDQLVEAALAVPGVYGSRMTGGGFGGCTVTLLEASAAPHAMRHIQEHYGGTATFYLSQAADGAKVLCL

In this experiment the target is recombinant human GALK1 (Homo sapiens, UniProt P51570). In words: hGALK1 biochemical activity assay (Kinase-Glo Plus, ATP depletion). The following applies: bracketed figure in the cell, e.g. (−1.2), is not defined in the text shown, read-out: hGALK. The procedure:
In vitro hGALK1 activity assays were performed as previously described. Liu et al., Bioorg. Med. Chem. Lett. 25(3): 721-727 (2015), which is incorporated by reference herein for the specific teachings thereof. The biochemical assay was performed by coupling the activity of recombinant human or mouse GALK1 to the Kinase-Glo Plus luminescent ATP detection kit, using ATP depletion as a measure of GALK1 turnover. Specifically, three μL/well of ATP substrate solution (35 μM ATP) in assay buffer (20 mM HEPES pH 8.0, 5 mM MgCl2, 60 mM NaCl, 1 mM DTT, 0.01% BSA final concentration) was dispensed into 1536-well assay plates (Greiner, white solid-bottom medium-binding plates). Aliquots of compound (23 nL solubilized in DMSO) were transferred to the assay plates using a Kalypsys 1536-well pintool such that 11 concentrations with 1/3 dilutions ranging from 57.4 μM-0.97 nM are tested. One μL/well of GALK-galactose solution (5 nM GALK1, 100 μM galactose) in assay buffer was then added, yielding a final reaction volume of 4 μL/well. Following a 1-hour room temperature incubation, 4 μL of Kinase-Glo Plus detection reagent was added to provide an ATP-dependent luminescent readout (final assay volume: 8 μL/well). Luminescence was detected using a ViewLux plate reader (PerkinElmer) after a 10-minute incubation, using a 1 second exposure time and 2× binning.

In the case of `CN(C)C(=O)C1CC(=O)C2=C(C1)NC(Nc1nc3ccccc3o1)=NC2c1ccccc1Cl` (stereo not shown) [Compound 277, 2-(benzo[d]oxazol-2-ylamino)-4-(2-chlorophenyl)-N,N-dimethyl-5-oxo-1,4,5,6,7,8-hexahydroquinazoline-7-carboxamide], the IC50 was 3.43 µM.
